Like-named read-outs stand apart in the source and are kept apart here.
Target: Human LDHA (Homo sapiens (Human), UniProt P00338)
Experiment: human LDHA primary biochemical assay (resazurin/diaphorase coupled, fluorescence)
[1] = read-out: Inhibitory activity IC50
[2] = LDHA inhibitory activity, activity level based on IC50 (Table 7)

## NS(=O)(=O)c1ccc(Cc2c(-c3ccc(F)c(F)c3)nn(-c3nc(C(=O)O)cs3)c2O)cc1 [Compound 53, 2-(3-(3,4-difluorophenyl)-5-hydroxy-4-(4-sulfamoylbenzyl)-1H-pyrazol-1-yl)thiazole-4-carboxylic acid]
LDHA inhibitory activity, assay of Example 1, activity level classes
  IC50: 100 to 1000 nM

## NS(=O)(=O)c1ccc(Cc2c(-c3cccc(-c4ccccc4)c3)nn(-c3nc(C(=O)O)cs3)c2O)cc1 [Compound 54, 2-(3-([1,1′-biphenyl]-3-yl)-5-hydroxy-4-(4-sulfamoylbenzyl)-1H-pyrazol-1-yl)thiazole-4-carboxylic acid]
[1]
  IC50: 100 to 1000 nM

## NS(=O)(=O)c1ccc(Cc2c(-c3cccc(-c4ccccc4F)c3)nn(-c3nc(C(=O)O)cs3)c2O)cc1 [Compound 55, 2-(3-(2′-fluoro-[1,1′-biphenyl]-3-yl)-5-hydroxy-4-(4-sulfamoylbenzyl)-1H-pyrazol-1-yl)thiazole-4-carboxylic acid]
[1]
  IC50: 100 to 1000 nM

## NS(=O)(=O)c1ccc(Cc2c(-c3cccc(Br)c3)nn(-c3nc(C(=O)O)cs3)c2O)cc1 [Compound 69, 2-(3-(3-bromophenyl)-5-hydroxy-4-(4-sulfamoylbenzyl)-1H-pyrazol-1-yl)thiazole-4-carboxylic acid]
[1]
  IC50: 1000 to 57000 nM

## NS(=O)(=O)c1ccc(Cc2c(-c3ccccc3)nn(-c3nc(C(=O)O)cs3)c2-c2cccnc2)cc1 [Compound 157, 2-(3-phenyl-5-(pyridin-3-yl)-4-(4-sulfamoylbenzyl)-1H-pyrazol-1-yl)thiazole-4-carboxylic acid]
[1]
  IC50: 100 to 1000 nM

## O=C(O)c1csc(-n2nc(-c3ccc(F)cc3)cc2C(F)(F)F)n1 [Compound 426]
[2]
  IC50: 1000 to 57000 nM

## NS(=O)(=O)c1ccc(Cc2c(-c3ccc(F)c(F)c3)nn(-c3nc(C(=O)O)cs3)c2O)cc1 [Compound 452, 2-(3-(3,4-difluorophenyl)-5-hydroxy-4-(4-sulfamoylbenzyl)-1H-pyrazol-1-yl)thiazole-4-carboxylic acid]
[2]
  IC50: 100 to 1000 nM
